Several values for one entry are separate records, joined by “and”; a condition that tells them apart may be missing. Identical values can stand only once. This is a selection; strong and weak results do not stand in their true shares.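 The endpoint reported here, percent growth, reads 100 for growth as untreated, 0 for no net growth and -100 for all cells dead.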 Activity calls are given as the source filed them. How the source made its calls: active means growth percent below 10; inactive means the rest.
What was measured:
Assay in all cases: NCI-60 one-dose screen, 48 h (100 = growth as untreated, 0 = no growth, -100 = all killed)
Conditions in all cases: 10 µM unless noted
NCI/ADR-RES ovarian = system: NCI/ADR-RES ovarian
T-47D breast = system: T-47D breast
BT-549 breast = system: BT-549 breast
MDA-MB-435 melanoma = system: MDA-MB-435 melanoma
SW-620 colon = system: SW-620 colon
MCF7 breast = system: MCF7 breast
HCT-116 colon = system: HCT-116 colon
HCC-2998 colon = system: HCC-2998 colon
KM12 colon = system: KM12 colon

Measured: growth

ClC1(Cl)SC(Cl)(Cl)C(Cl)(Cl)C1(Cl)Cl
inactive: NCI/ADR-RES ovarian 102% | T-47D breast 91.1% | BT-549 breast 106% | MDA-MB-435 melanoma 108% | SW-620 colon 104% | MCF7 breast 91.6% | HCT-116 colon 104% | HCC-2998 colon 90.3% | KM12 colon 98.1%

CC(=O)Nc1ccc([As](=O)(O)O)cc1
inactive: NCI/ADR-RES ovarian 112% | T-47D breast 105% | BT-549 breast 109% | MDA-MB-435 melanoma 77.3% | SW-620 colon 103% | MCF7 breast 105% | HCT-116 colon 98.9% | HCC-2998 colon 110% | KM12 colon 101%

CC1CCNP(=O)(N(CCCl)CCCl)O1 (stereo unspecified)
inactive: NCI/ADR-RES ovarian 109% | T-47D breast 102% | BT-549 breast 120% | MDA-MB-435 melanoma 100% | SW-620 colon 88.3% | MCF7 breast 92.1% | HCT-116 colon 108% | HCC-2998 colon 115% | KM12 colon 94.9%

CC[C@H](C)[C@@H]1NC(=O)/C(=C(\C)O)C1=O
inactive: NCI/ADR-RES ovarian 105% | T-47D breast 103% | BT-549 breast 95.4% | MDA-MB-435 melanoma 96.5% | SW-620 colon 103% | MCF7 breast 92.9% | HCT-116 colon 115% | HCC-2998 colon 123% | KM12 colon 94.9%

COc1cc([N+](=O)[O-])cc([N+](=O)[O-])c1
inactive: NCI/ADR-RES ovarian 99.4% | T-47D breast 104% | BT-549 breast 99.3% | MDA-MB-435 melanoma 109% | SW-620 colon 108% | MCF7 breast 85.7% | HCT-116 colon 88.4% | HCC-2998 colon 118% | KM12 colon 101%

CC1(CCC2(C)N=C(NN=C(CCl)CCl)SP2(=O)Nc2ncccn2)N=C(NN=C(CCl)CCl)SP1(=O)Nc1ncccn1 (stereo unspecified)
inactive: NCI/ADR-RES ovarian 100% [100 µM] | T-47D breast 97.9% [100 µM] | BT-549 breast 108% [100 µM] | MDA-MB-435 melanoma 102% [100 µM] | SW-620 colon 104% [100 µM] | MCF7 breast 100% [100 µM] | HCT-116 colon 105% [100 µM] | HCC-2998 colon 98.5% [100 µM] | KM12 colon 102% [100 µM]

COP(=O)(OC)N1CC1c1ccccc1 (stereo unspecified)
inactive: NCI/ADR-RES ovarian 104% | T-47D breast 115% | BT-549 breast 83.4% | MDA-MB-435 melanoma 105% | SW-620 colon 99.3% | MCF7 breast 104% | HCT-116 colon 105% | HCC-2998 colon 103% | KM12 colon 107%

O=[N+]([O-])c1ccc(-c2cc([N+](=O)[O-])c(O)c([N+](=O)[O-])c2)cc1
inactive: NCI/ADR-RES ovarian 101% | T-47D breast 92.2% and 98.9% | BT-549 breast 106% and 98.6% | MDA-MB-435 melanoma 104% and 107% | SW-620 colon 103% and 105% | MCF7 breast 108% and 104% | HCT-116 colon 112% and 99.9% | HCC-2998 colon 94.9% and 136% | KM12 colon 105% and 107%

S=P(Cl)(N1CCCCCC1)N1CC1 (stereo unspecified)
inactive: NCI/ADR-RES ovarian 107% | T-47D breast 94.3% | BT-549 breast 106% | MDA-MB-435 melanoma 103% | SW-620 colon 105% | MCF7 breast 102% | HCT-116 colon 98.3% | HCC-2998 colon 106% | KM12 colon 103%

O=[As](O)(c1ccccc1)c1ccc(O)cc1
inactive: NCI/ADR-RES ovarian 100% | T-47D breast 97.9% | BT-549 breast 118% | MDA-MB-435 melanoma 97.7% | SW-620 colon 111% | MCF7 breast 71.3% | HCT-116 colon 95.5% | HCC-2998 colon 103% | KM12 colon 110%

COP(=O)(CCCBr)OC
inactive: NCI/ADR-RES ovarian 105% | T-47D breast 101% | BT-549 breast 103% | MDA-MB-435 melanoma 99.3% | SW-620 colon 111% | MCF7 breast 95.3% | HCT-116 colon 102% | HCC-2998 colon 112% | KM12 colon 115%

OP1OCCO1
inactive: NCI/ADR-RES ovarian 105% | T-47D breast 102% | BT-549 breast 105% | MDA-MB-435 melanoma 100% | SW-620 colon 105% | MCF7 breast 97.2% | HCT-116 colon 104% | HCC-2998 colon 119% | KM12 colon 112%

CCCCCCCCCCNP(=S)(Cl)Cl
inactive: NCI/ADR-RES ovarian 104% | T-47D breast 101% | BT-549 breast 108% | MDA-MB-435 melanoma 102% | SW-620 colon 103% | MCF7 breast 93.7% | HCT-116 colon 104% | HCC-2998 colon 110% | KM12 colon 103%

O=C(c1ccc(F)cc1)N(CCCl)CCCl
inactive: NCI/ADR-RES ovarian 99.6% | T-47D breast 93.9% | BT-549 breast 105% | MDA-MB-435 melanoma 103% | SW-620 colon 99.3% | MCF7 breast 94.4% | HCT-116 colon 105% | HCC-2998 colon 97.1% | KM12 colon 106%
